# Measurements as given in PubChem BioAssay (NCI).
#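 Growth conditions: 96-well plates. Treatment: test compound, 48 hours, 5 concentrations. Analysis: linear interpolation between bracketing concentrations; unreached endpoints set to highest concentration. GI50 marks 50% less growth. TGI: total growth inhibition.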
# Columns and labels:
# Experiment in all cases: growth of human tumour cells (NCI), 48 h
# SK-MEL-2 melanoma = system: SK-MEL-2 melanoma
# CAKI-1 renal = system: CAKI-1 renal
# OVCAR-4 ovarian = system: OVCAR-4 ovarian
# SN12C renal = system: SN12C renal
# UO-31 renal = system: UO-31 renal
# SNB-75 CNS = system: SNB-75 CNS
# MDA-MB-231 breast = system: MDA-MB-231 breast
# SF-268 CNS = system: SF-268 CNS
# UACC-257 melanoma = system: UACC-257 melanoma
# HS 578T breast = system: HS 578T breast
# HCT-15 colon = system: HCT-15 colon
# MDA-MB-435 = system: MDA-MB-435
# A498 renal = system: A498 renal
# SF-295 CNS = system: SF-295 CNS
# NCI-H460 lung = system: NCI-H460 lung
# TK-10 renal = system: TK-10 renal
# A549 NSCLC = system: A549 NSCLC
# NCI/ADR-RES ovarian = system: NCI/ADR-RES ovarian
# COLO 205 colon = system: COLO 205 colon
# NCI-H226 lung = system: NCI-H226 lung
# NCI-H322M lung = system: NCI-H322M lung
# SK-OV-3 ovarian = system: SK-OV-3 ovarian
# OVCAR-5 ovarian = system: OVCAR-5 ovarian
# HT29 colon = system: HT29 colon
# SK-MEL-5 melanoma = system: SK-MEL-5 melanoma
# HL-60(TB) leukemia = system: HL-60(TB) leukemia
# 786-0 renal = system: 786-0 renal
# RXF 393 renal = system: RXF 393 renal
# HCT-116 colon = system: HCT-116 colon
# BT-549 breast = system: BT-549 breast
# KM12 colon = system: KM12 colon
# PC-3 prostate = system: PC-3 prostate
# HCC-2998 colon = system: HCC-2998 colon
# LOX IMVI melanoma = system: LOX IMVI melanoma
# SK-MEL-28 melanoma = system: SK-MEL-28 melanoma
# HOP-62 NSCLC = system: HOP-62 NSCLC
# HOP-92 NSCLC = system: HOP-92 NSCLC
# U251 CNS = system: U251 CNS
# SR leukemia = system: SR leukemia
# DU-145 prostate = system: DU-145 prostate
# NCI-H522 lung = system: NCI-H522 lung
# T-47D breast = system: T-47D breast
# MCF7 breast = system: MCF7 breast
# RPMI-8226 leukemia = system: RPMI-8226 leukemia
# MOLT-4 leukemia = system: MOLT-4 leukemia
# NCI-H23 lung = system: NCI-H23 lung
# SNB-19 CNS = system: SNB-19 CNS
# CCRF-CEM leukemia = system: CCRF-CEM leukemia
# SW-620 colon = system: SW-620 colon
# SF-539 CNS = system: SF-539 CNS
# ACHN renal = system: ACHN renal
# MALME-3M melanoma = system: MALME-3M melanoma
# MDA-N = system: MDA-N
# IGROV1 ovarian = system: IGROV1 ovarian
# K-562 leukemia = system: K-562 leukemia
# OVCAR-3 ovarian = system: OVCAR-3 ovarian
# OVCAR-8 ovarian = system: OVCAR-8 ovarian
# UACC-62 melanoma = system: UACC-62 melanoma
# EKVX NSCLC = system: EKVX NSCLC
# M14 melanoma = system: M14 melanoma
structure (smiles),measurement,setting,value
Cc1cccc(C[N+](C)(CCCl)CCCl)c1[N+](=O)[O-],GI50,SK-MEL-2 melanoma,> 100 µM
same,TGI,SK-MEL-2 melanoma,> 100 µM
same,GI50,CAKI-1 renal,22.5 µM
same,TGI,CAKI-1 renal,> 100 µM
same,GI50,OVCAR-4 ovarian,> 100 µM
same,TGI,OVCAR-4 ovarian,> 100 µM
same,GI50,SN12C renal,68.9 µM
same,TGI,SN12C renal,> 100 µM
same,GI50,UO-31 renal,> 100 µM
same,TGI,UO-31 renal,> 100 µM
same,GI50,SNB-75 CNS,39.4 µM
same,TGI,SNB-75 CNS,> 100 µM
same,GI50,MDA-MB-231 breast,> 100 µM
same,TGI,MDA-MB-231 breast,> 100 µM
same,GI50,SF-268 CNS,> 100 µM
same,TGI,SF-268 CNS,> 100 µM
same,GI50,UACC-257 melanoma,> 100 µM
same,TGI,UACC-257 melanoma,> 100 µM
same,GI50,HS 578T breast,> 100 µM
same,TGI,HS 578T breast,> 100 µM
same,GI50,HCT-15 colon,> 100 µM
same,TGI,HCT-15 colon,> 100 µM
same,GI50,MDA-MB-435,> 100 µM
same,TGI,MDA-MB-435,> 100 µM
same,GI50,A498 renal,> 100 µM
same,TGI,A498 renal,> 100 µM
same,GI50,SF-295 CNS,> 100 µM
same,TGI,SF-295 CNS,> 100 µM
same,GI50,NCI-H460 lung,6.03 µM
same,TGI,NCI-H460 lung,> 100 µM
same,GI50,TK-10 renal,> 100 µM
same,TGI,TK-10 renal,> 100 µM
same,GI50,A549 NSCLC,91.2 µM
same,TGI,A549 NSCLC,> 100 µM
same,GI50,NCI/ADR-RES ovarian,> 100 µM
same,TGI,NCI/ADR-RES ovarian,> 100 µM
same,GI50,COLO 205 colon,> 100 µM
same,TGI,COLO 205 colon,> 100 µM
same,GI50,NCI-H226 lung,> 100 µM
same,TGI,NCI-H226 lung,> 100 µM
same,GI50,NCI-H322M lung,> 100 µM
same,TGI,NCI-H322M lung,> 100 µM
same,GI50,SK-OV-3 ovarian,> 100 µM
same,TGI,SK-OV-3 ovarian,> 100 µM
same,GI50,OVCAR-5 ovarian,> 100 µM
same,TGI,OVCAR-5 ovarian,> 100 µM
same,GI50,HT29 colon,> 100 µM
same,TGI,HT29 colon,> 100 µM
same,GI50,SK-MEL-5 melanoma,> 100 µM
same,TGI,SK-MEL-5 melanoma,> 100 µM
same,GI50,HL-60(TB) leukemia,31.4 µM
same,TGI,HL-60(TB) leukemia,> 100 µM
same,GI50,786-0 renal,82.2 µM
same,TGI,786-0 renal,> 100 µM
same,GI50,RXF 393 renal,51.5 µM
same,TGI,RXF 393 renal,> 100 µM
same,GI50,HCT-116 colon,> 100 µM
same,TGI,HCT-116 colon,> 100 µM
same,GI50,BT-549 breast,> 100 µM
same,TGI,BT-549 breast,> 100 µM
same,GI50,KM12 colon,> 100 µM
same,TGI,KM12 colon,> 100 µM
same,GI50,PC-3 prostate,> 100 µM
same,TGI,PC-3 prostate,> 100 µM
same,GI50,HCC-2998 colon,> 100 µM
same,TGI,HCC-2998 colon,> 100 µM
same,GI50,LOX IMVI melanoma,67.3 µM
same,TGI,LOX IMVI melanoma,> 100 µM
same,GI50,SK-MEL-28 melanoma,> 100 µM
same,TGI,SK-MEL-28 melanoma,> 100 µM
same,GI50,HOP-62 NSCLC,> 100 µM
same,TGI,HOP-62 NSCLC,> 100 µM
same,GI50,HOP-92 NSCLC,46 µM
same,TGI,HOP-92 NSCLC,> 100 µM
same,GI50,U251 CNS,> 100 µM
same,TGI,U251 CNS,> 100 µM
same,GI50,SR leukemia,3.33 µM
same,TGI,SR leukemia,> 100 µM
same,GI50,DU-145 prostate,75.5 µM
same,TGI,DU-145 prostate,> 100 µM
same,GI50,NCI-H522 lung,67.1 µM
same,TGI,NCI-H522 lung,> 100 µM
same,GI50,T-47D breast,35.3 µM
same,TGI,T-47D breast,> 100 µM
same,GI50,MCF7 breast,85.7 µM
same,TGI,MCF7 breast,> 100 µM
same,GI50,RPMI-8226 leukemia,> 100 µM
same,TGI,RPMI-8226 leukemia,> 100 µM
same,GI50,MOLT-4 leukemia,30.5 µM
same,TGI,MOLT-4 leukemia,> 100 µM
same,GI50,NCI-H23 lung,94.2 µM
same,TGI,NCI-H23 lung,> 100 µM
same,GI50,SNB-19 CNS,> 100 µM
same,TGI,SNB-19 CNS,> 100 µM
same,GI50,CCRF-CEM leukemia,32.8 µM
same,TGI,CCRF-CEM leukemia,> 100 µM
same,GI50,SW-620 colon,> 100 µM
same,TGI,SW-620 colon,> 100 µM
same,GI50,SF-539 CNS,> 100 µM
same,TGI,SF-539 CNS,> 100 µM
same,GI50,ACHN renal,24.3 µM
same,TGI,ACHN renal,> 100 µM
same,GI50,MALME-3M melanoma,> 100 µM
same,TGI,MALME-3M melanoma,> 100 µM
same,GI50,MDA-N,> 100 µM
same,TGI,MDA-N,> 100 µM
same,GI50,IGROV1 ovarian,> 100 µM
same,TGI,IGROV1 ovarian,> 100 µM
same,GI50,K-562 leukemia,> 100 µM
same,TGI,K-562 leukemia,> 100 µM
same,GI50,OVCAR-3 ovarian,> 100 µM
same,TGI,OVCAR-3 ovarian,> 100 µM
same,GI50,OVCAR-8 ovarian,> 100 µM
same,TGI,OVCAR-8 ovarian,> 100 µM
same,GI50,UACC-62 melanoma,> 100 µM
same,TGI,UACC-62 melanoma,> 100 µM
same,GI50,EKVX NSCLC,> 100 µM
same,TGI,EKVX NSCLC,> 100 µM
same,GI50,M14 melanoma,> 100 µM
same,TGI,M14 melanoma,> 100 µM
